Where two headings read alike, the source gives them in different places.

By UniProt entry, the sequences of proteins in these tests, tags left out.
UniProt Q12809, whole entry: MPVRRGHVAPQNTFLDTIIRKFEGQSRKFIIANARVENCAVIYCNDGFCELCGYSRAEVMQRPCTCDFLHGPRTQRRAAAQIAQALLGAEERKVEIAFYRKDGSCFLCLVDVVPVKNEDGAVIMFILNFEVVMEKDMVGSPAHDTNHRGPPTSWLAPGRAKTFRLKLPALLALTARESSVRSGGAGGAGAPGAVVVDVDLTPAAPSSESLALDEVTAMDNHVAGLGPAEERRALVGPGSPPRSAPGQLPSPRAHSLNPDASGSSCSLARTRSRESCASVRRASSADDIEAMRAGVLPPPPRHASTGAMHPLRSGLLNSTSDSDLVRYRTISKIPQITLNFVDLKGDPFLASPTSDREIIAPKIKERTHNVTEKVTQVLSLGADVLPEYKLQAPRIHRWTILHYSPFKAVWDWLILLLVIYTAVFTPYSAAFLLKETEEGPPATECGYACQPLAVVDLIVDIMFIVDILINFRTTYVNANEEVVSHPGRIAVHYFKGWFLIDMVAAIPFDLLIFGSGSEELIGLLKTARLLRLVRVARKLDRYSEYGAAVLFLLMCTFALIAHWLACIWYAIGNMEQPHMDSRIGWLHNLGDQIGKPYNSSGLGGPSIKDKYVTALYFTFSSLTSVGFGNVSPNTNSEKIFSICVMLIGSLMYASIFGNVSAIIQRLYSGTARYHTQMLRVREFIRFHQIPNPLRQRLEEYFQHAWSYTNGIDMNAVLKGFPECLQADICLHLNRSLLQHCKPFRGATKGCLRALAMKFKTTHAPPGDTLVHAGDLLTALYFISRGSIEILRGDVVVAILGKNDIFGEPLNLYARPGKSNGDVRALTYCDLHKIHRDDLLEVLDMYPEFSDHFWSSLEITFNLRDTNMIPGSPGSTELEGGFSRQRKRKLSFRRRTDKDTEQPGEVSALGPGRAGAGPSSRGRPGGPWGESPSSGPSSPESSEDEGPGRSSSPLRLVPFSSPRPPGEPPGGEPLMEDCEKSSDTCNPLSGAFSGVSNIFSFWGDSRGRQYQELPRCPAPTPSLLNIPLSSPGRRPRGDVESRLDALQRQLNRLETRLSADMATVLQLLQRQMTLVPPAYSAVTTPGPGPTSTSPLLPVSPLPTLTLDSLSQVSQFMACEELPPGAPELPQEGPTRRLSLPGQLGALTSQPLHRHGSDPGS

The results in this text go back to patent publication US20240216357A1 (SICHUAN HUIYU PHARMACEUTICAL CO., LTD., priority 2021, published 2024).

The subject of one series is Caco-2 cells. Particulars: tested form: formate.
Another series addresses LSD1 (Homo sapiens (Human), UniProt O60341). Briefly: LSD1 enzyme activity detection (HTRF). The format is biochemical. The note with it: read-out: Inhibition of enzymatic activity of LSD1 IC50.
Another series has as its system NCI-H1417 cells. As to the kind of experiment: In vitro cell proliferation detection (CellTiter-Glo, 7 days). It counts as cell-based. (In general: ATP-based viability assays read luminescence as a measure of living cells.)
For series [1], the target named is voltage-gated potassium ion channel hERG (Homo sapiens (Human), UniProt Q12809).

As to `Cc1noc2cc(-c3sc(C(=O)N4C5CCC4CC(N)C5)cc3-c3ccc(C#N)c(F)c3)c(F)cc12` (stereo not drawn), in the series on Caco-2 cells, the Papp A→B was 1.5 ×10⁻⁶ cm/s, the apparent permeability from basolateral to apical (Papp B→A) turned out to be 37.6 ×10⁻⁶ cm/s and the efflux ratio was found to be 25.2. On LSD1 (HTRF, H3K4me1 substrate, tested form: formate), the IC50 was 0.026 nM. The IC50 in the series with NCI-H1417 cells (read-out: NCI-H1417 proliferation inhibition IC50, tested form: formate) was 0.52 nM. This molecule registered an IC50 in series [1] (tested form: formate) of 2100 nM.

Consider `N#Cc1ccc(-c2nc(N3CCC(N)CC3)cc(O)c2-c2ccc(F)c(O)c2)cc1F` [Example 58, 4-(6-(4-aminopiperidin-1-yl)-3-(4-fluoro-3-hydroxyphenyl)-4-hydroxypyridin-2-yl)-2-fluorobenzonitrile], for which the IC50 is 1 nM on LSD1, 8.78 nM in the series on NCI-H1417 cells (read-out: NCI-H1417 proliferation inhibition IC50) and over 30000 nM in series [1].

What is called Papp A→B is how fast a substance crosses the layer from the apical side. Low readings indicate slow passage, high ones fast passage. Usually Papp B→A stands for how fast a substance crosses the layer from the basolateral side. By efflux ratio is commonly meant a quotient of directional permeabilities that is used to spot active efflux.
